ChEMBL document CHEMBL1921786, “Synthesis and testing of trifluoromethyl-containing phosphonate-peptide conjugates as inhibitors of serine hydrolases” (2011)

Assay: Ratio of IC50 for pig liver carboxylesterase to IC50 for horse serum BChE

SMILES	Ratio IC50
CC(C)(C(=O)NCCn1cc(COP(C)(=O)OC(C(F)(F)F)C(F)(F)F)nn1)N(Cc1ccccc1)C(=O)C(F)(F)F (stereo not given)	5
C#CCOP(C)(=O)OC(C(=O)OC)C(F)(F)F (stereo not given)	5
COC(=O)C(OP(C)(=O)OCc1cn(C[C@@H](NC(=O)CN(Cc2ccccc2)C(=O)[C@H](C)NC(=O)OC(C)(C)C)C(C)C)nn1)C(F)(F)F (stereo not given in full)	12
CC(C)[C@@H](Cn1cc(COP(C)(=O)OC(C(F)(F)F)C(F)(F)F)nn1)NC(=O)CN(Cc1ccccc1)C(=O)[C@H](C)NC(=O)OC(C)(C)C (stereo not given in full)	1
COC(=O)C(OP(C)(=O)OCc1cn(C[C@@H](NC(=O)CN(Cc2ccccc2)C(=O)C(F)(F)F)C(C)C)nn1)C(F)(F)F (stereo not given in full)	13
CC[C@H](C)[C@@H](Cn1cc(COP(C)(=O)OC(C(F)(F)F)C(F)(F)F)nn1)NC(=O)CN(Cc1ccccc1)C(=O)C(F)(F)F (stereo not given in full)	11
CC[C@H](C)[C@H](NC(=O)OC(C)(C)C)C(=O)N(Cc1ccc(OC)cc1OC)C(C)(C)C(=O)N[C@@H](C)Cn1cc(COP(C)(=O)OC(C(F)(F)F)C(F)(F)F)nn1 (stereo not given in full)	1
C#CCOP(C)(=O)OC(C(F)(F)F)C(F)(F)F (stereo not given)	11
CC(C)[C@@H](Cn1cc(COP(C)(=O)OC(C(F)(F)F)C(F)(F)F)nn1)NC(=O)CN(Cc1ccccc1)C(=O)C(F)(F)F (stereo not given in full)	13
C[C@@H](Cn1cc(COP(C)(=O)OC(C(F)(F)F)C(F)(F)F)nn1)NC(=O)CN(Cc1ccccc1)C(=O)C(F)(F)F (stereo not given in full)	1
